The results in this text go back to publication PMC4546618, “Casitas B-Lineage Lymphoma RING Domain Inhibitors Protect Mice against High-Fat Diet-Induced Obesity and Insulin Resistance” (PLoS ONE, 2015).

This test concerns the target T1, Cbl (RING) protein (Homo sapiens, UniProt P22681).
T1 construct: including the linker and RING domain (codon 358–457); GST (Glutathione S-Transferase); made in house
T1 sequence (P22681 358-457): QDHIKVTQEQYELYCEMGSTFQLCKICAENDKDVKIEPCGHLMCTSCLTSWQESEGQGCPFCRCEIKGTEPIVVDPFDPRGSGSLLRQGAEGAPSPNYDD
As to the kind of experiment: Fluorescence polarization (FP) assay, competition with FITC-βA-PFKPP-NH2 probe. The test is classed as binding. The note with it: probe FITC-βA-PFKPP-NH2 100 nmol/L, Cbl (RING) protein 3 μmol/L, PBS pH 7.4. How it is done:
Peptides and peptide mimetics were purchased from MitenChem (China) with a purity ≥ 98%. Concentrations values of reconstituted peptides were determined by amino acid analysis at the protein core facility (Chengdu Medical College). The recombinant Cbl protein was produced by the Chengdu Medical College Protein Core Facility and was described previously. The c-Cbl (RING) protein, including the linker and RING domain (codon 358–457), was tagged with Glutathione S-Transferase (GST) and purified with GSH-Sepharose (Shanghai Biopharma).
The FP assay was developed and validated previously. Briefly, fluorescein-labeled probe (FITC-βA-PFKPP-NH2, 100 nmol/L) and Cbl (RING) protein (3 μmol/L) were mixed and diluted to the final concentration using 0.01% Triton X-100 in PBS (pH = 7.4). Then, 19 μl of this master mix was loaded to each reaction well. The peptides or peptide mimetics were then loaded to the designated wells (1 μl, 10 μmol/L– 0.078 μmol/L, half-fold dilutions). The total fluorescence and polarization values were measured at an excitation wavelength of 485 nm and an emission wavelength of 538 nm using a ZS-2 plate reader. The data was fitted, and the ΔmP, Kd, and Ki values were estimated, using SigmaPlot 11.0.
On the technique in general: Fluorescence polarisation rises when a labelled molecule tumbles more slowly, as on binding a larger partner.

Ac-P(h)KP(u)-NH2 [Peptide 23] came in with a Ki greater than 250 µM.
In turn, Ac-K(u)ATK-NH2 [Peptide 52] had an inhibition constant Ki of 66.4 ± 10.8 µM.

As usually defined, the Ki is a measure of affinity in units of concentration, obtained from inhibition or displacement. A high value points to weaker binding.
